In patent EP4524159A1, “ANTIBODY AND USE THEREOF” (Sichuan Huiyu Pharmaceutical Co., Ltd., priority 2022, dated 2023):

B1: SB15 (antibody, V domains shown)
VH: EVKLVESGGGLVKPGGSLKLSCAASGFTFSSYGMSWVRQTPEKRLEWVATISGGINYTYYRDSVEGRFTISRDNAKNNLYLQMSRLRSEDTALYYCARHDRYDGYYYVMDYWGQGTSVTVSS
VL: DIQMTQSPSSLSASLGERVSLTCRASQEISGYLTWLQQRPDGTIKRLIYAASTLDSGVPKRFSGSRSGSDYSLTISSLESEDFADYYCLQYASYPYTFGGGTKLEIK
B2: SB16 (antibody, V domains shown)
VH: QVQLQQSGPELVRPGVSVRISCKGSGYPFTDYAIHWVKQGHGKNLEWIGVIAPYSDNTGYNQRFKGKATMTVDKSSSTAYMELARLTSEDSAIYYCAAYGNYGYYTMDYWGQGTSVTVSS
VL: DIQMTQSTSSLSASLGDRVTITCRASQDITNYLNWYQQKPDGTVKLLIYYTSRLHSGVPSRFSGSGSGTDFSLTISNLEQEDIATYFCQQGNTLPWTFGGGTKLEII
B3: SB17 (antibody, V domains shown)
VH: QVTLKESGPGILQPSQTLSLTCSFSGFSLSTSGMSVGWIRQPSGKGLEWLAHIWWNDDKYYNPALKTRLTISKDSSNNQIFLKIASVVTADSATYYCARIGYYYGTYALDYWGPGTSVTVSS
VL: QIVLTQSPALMTASPGEQVTMTCSASSSVSYIHWYQQKSGTSPKRWIYDASKLASGVPARFSGSGSGTSYSLTISSMEAEDAATYYCQQWSSYPLTFGGGTKLELK
B4: SB18 (antibody, V domains shown)
VH: QVTLKESGPGILQPSQTLSLTCSFSGFSLTTSGMNVGWLRQPSGKGLEWLAHIWWNDDKHSNPVLKSRLTISKDTSNNQAFLKIANVVTADSATYYCARLRDGGFAYWGQGTLVTVSA
VL: DIQMTQTTSSLSASLGDRVTISCSASQAISNYLNWYQQKPDGTVKLLIYYTSHLHSGVPSRFSGSGSGTDYSLTISNLEPEDIATYYCQQYSKIPWTFGGGTKLEII
B5: SB11 (antibody, V domains shown)
VH: EVQLQQSGAELVKPGASVKLSCTASGFNIQDTYILWVKQRPEQGLEWIGGIDPANDNTNYGPNFQGKATITADTSSNTAYLQLSSLTSEDSAVYYCAREDAYPWFAYWGQGTLVTVSS
VL: DIVLTQSPASLAVSLGQRATISCRASQSVSTSSYSYMHWYQLKPGQPPKLLIKYASNLESGVPARFSGSGSGTDFTLNIHPVEEEDAAIYYCQHNWEIPWTFGGGTRLEIK
B6: SB13 (antibody, V domains shown)
VH: EVKLVESGGGLVQPGGSLRLSCATSGFTFSDFYMEWVRQPPGKRLEWIAVSRDKTNDYTTEYSASMKGRFIVSRDTSQSILYLQMNALRAEDTAIYYCARDGVYYYGSSYTLDYWGQGTSVTVSS
VL: DIVMTQSHKFMSTSVGDRVSITCKASQDVSSSVAWYQQKPGQSPKLLIYWASTRHTGVPDRFTGSGSGTDYTLTISSVQAEDLALYYCQQHYNTPPTFGGGTKLEIK
B7: SB14 (antibody, V domains shown)
VH: QVQLQQSGNEVVKPGASVKLSCKTSGYTFTNYWLQWVKQRPGQGLEWIGEIFPGTGTTYYNEKFKDQATVTIDTSSSTAYIHLSSLTSEDSAVYFCARTNWEGYYFDYWGQGTTLTVSS
VL: ENVLTQSPAIMSASSGEKVTMTCRASSSVRSSYLHWYQQKSGASPKVWIYSTSNLASGVPVRFSGSGSGTSYSLTISSVEAEDAATYYCQQYSGSPSWTFGGGTKLEIK

molecular target: HuCDCP1-C (human) (UniProt Q9H5V8); assay: ELISA, HuCDCP1-C coated 2 ug/ml

Row | Binder | ELISA [nM]
1 | B1 | 0.042
2 | B2 | 19.6
3 | B3 | 0.046
4 | B4 | 0.121
5 | B5 | 0.038
6 | B6 | 0.048
7 | B7 | 0.067

molecular target: T1, HuCDCP1-B (human) (UniProt Q9H5V8); assay: ELISA, HuCDCP1-B coated 2 ug/ml
T1 sequence (looked up): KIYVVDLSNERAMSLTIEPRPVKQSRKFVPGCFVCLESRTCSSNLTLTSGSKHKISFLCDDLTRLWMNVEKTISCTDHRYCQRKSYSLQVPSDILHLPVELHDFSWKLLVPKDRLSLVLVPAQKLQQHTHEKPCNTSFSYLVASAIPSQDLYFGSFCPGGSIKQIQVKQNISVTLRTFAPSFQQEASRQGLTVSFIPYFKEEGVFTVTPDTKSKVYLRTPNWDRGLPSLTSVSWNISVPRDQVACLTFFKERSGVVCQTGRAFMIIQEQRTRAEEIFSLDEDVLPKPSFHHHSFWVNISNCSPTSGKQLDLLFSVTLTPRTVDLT

Row | Binder | ELISA [nM]
8 | B5 | 0.035
9 | B7 | 0.056
